Among the data in article PMC10860255, “Scalable production of recombinant three-finger proteins: from inclusion bodies to high quality molecular probes” (2024) are stoichiometry N values, retold here.

The target of this test is recombinant mouse Pate B (mouse) (UniProt Q09098). Kind of test: SEC. (SEC sorts molecules by how far they enter the pores of the column.)

In the case of “recombinant mouse Pate B (from UniProt Q09098 24-99) (natural protein)”, the stoichiometry N was 2.

As a reminder, the stoichiometry N is a count of units in the complex or per binding partner.
